# AlphaSeq binding of Ab-14 heavy chain variants to a spike HR2 peptide

Values reported by Li et al. 2023, doi:10.1038/s41467-023-39022-2 (FLAb copy).

Target peptide (SARS-CoV-2 spike, HR2 region): PDVDLGDISGINAS

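The starting antibody came from a phage panning campaign against this peptide. Designed CDR sequences, proposed from the first random library and measured here. Group labels follow the data file (Ctrl: baseline library sampled from a position-specific scoring matrix, with some repeated check sequences; Rand: our label for a block that the file lists under HC and that is probably the random mutants of the ten best first-round binders; En: ensemble of fine-tuned language models; GP: Gaussian process model; GPLM: also part of the Gaussian process libraries; HC: hill climbing; Gen: genetic algorithm; Gibbs: Gibbs sampling; a sequence that several methods proposed may carry one label only). Affinity was read by AlphaSeq, a pooled yeast mating assay with surface-displayed partners. Pairs that bind mate more often; barcode pairs of the diploids are counted by sequencing. Scores were corrected for input abundance and mapped to Kd with protein pairs of known affinity run in the same pool. The assay was run in six technical replicates.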

Ab-14 is the parent antibody, in scFv form: VH, then a 15-residue (Gly4Ser)3 linker, then VL. The light chain is unchanged in all variants.
VH: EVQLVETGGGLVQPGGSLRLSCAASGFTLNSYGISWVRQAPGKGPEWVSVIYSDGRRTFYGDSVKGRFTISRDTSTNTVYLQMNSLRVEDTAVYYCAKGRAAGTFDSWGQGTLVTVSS
VL: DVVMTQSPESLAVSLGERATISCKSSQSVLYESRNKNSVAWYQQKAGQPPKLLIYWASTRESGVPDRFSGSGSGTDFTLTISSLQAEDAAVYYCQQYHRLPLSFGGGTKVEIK

Positions count from residue 1 of the parent VH; T28D puts D in place of T. Variants here have at most six changes. Numbers give log10(Kd / nM), so 0 is 1 nM and 3 is 1 µM. Smaller is tighter. The mean shown is taken over the replicates in which the pair was detected. An entry "n.d." has no value in the source: the pair was not observed among the diploids in that replicate. This suggests poor binding but is not conclusive. The range of this assay differs from that of the first round, and the authors advise against merging the two. In the paper, a design with two or fewer of six values counts as a poor binder. Three control strains display no target. For all heavy chain designs, 1% of the pairings with them gave a signal, with a median of 2.08 and one signal in twenty below 0.84, so weak values seen in few replicates may be background. Of ten entries with the parent sequence, four were seen in most replicates (averages 0.34 to 2.37), three in one and three in none, so single entries are noisy.

| changes | group | log10 Kd (nM) by replicate | mean log10 Kd (nM) |
|---|---|---|---|
| T28D/Y60V/T104W/D106N | Rand | n.d. n.d. n.d. n.d. n.d. n.d. | n.d. |
| S31D/R100P/G103L/D106I | Rand | n.d. n.d. n.d. n.d. n.d. n.d. | n.d. |
| R56Q/G61S/A101E/S107T | GPLM_Gibbs | 0.34 0.09 -0.16 0.01 0.90 0.29 | 0.24 |
| T28D/S31E/S53A/G61S/R100Q/A101L | En_HC | -0.48 -0.13 -0.28 -0.54 -0.51 -0.35 | -0.38 |
| I34S/S107T | Ctrl | n.d. n.d. n.d. n.d. n.d. n.d. | n.d. |
| R56K/A101N/G103T | Ctrl | n.d. n.d. n.d. n.d. n.d. n.d. | n.d. |
| T28N/G61T/S63A/G99C/T104Q | Ctrl | 0.29 1.60 1.64 0.54 0.77 1.20 | 1.01 |
| S31D/G61H/D106V | GPLM_HC | n.d. n.d. n.d. n.d. n.d. n.d. | n.d. |
| T28D/R100K/S107M | GPLM_Gibbs | -0.28 -0.13 0.64 n.d. n.d. n.d. | 0.08 |
| T28S/S31E/R100G | GPLM_Gen | -0.57 -0.57 -0.91 -0.60 -0.17 -0.44 | -0.54 |
| T28S/F59K/G61H/S63D/A101V | Ctrl | n.d. 0.54 n.d. 1.80 n.d. n.d. | 1.17 |
| T28S/N30K/G61A/A101T | GPLM_Gen | 0.40 0.78 0.26 0.66 0.22 1.16 | 0.58 |
| G61D/R100E | Ctrl | -0.10 n.d. n.d. n.d. n.d. n.d. | -0.10 |
| A101V/T104S | Ctrl | 0.94 1.18 1.63 1.80 1.02 2.10 | 1.45 |
| T28S/G61K/R100H | GPLM_Gen | 1.91 1.85 n.d. 1.82 1.78 1.15 | 1.70 |
| D62P/R100Q/F105Y | Ctrl | n.d. n.d. n.d. n.d. n.d. n.d. | n.d. |
| T28S/S31D/T58Q | GP_HC | 0.63 0.36 0.34 0.18 0.37 0.34 | 0.37 |
| T28S/G61A/R100K/A101Q | GPLM_Gen | 0.10 -0.21 -0.53 -0.42 -0.44 0.18 | -0.22 |
| T28S/G61A/S63N/R100Q/A101T | GP_Gen | 0.05 0.02 0.36 0.13 0.13 0.18 | 0.14 |
| R56V/G61S/R100D | GPLM_Gen | 0.41 0.02 0.19 0.29 0.48 0.60 | 0.33 |
| G61S/A101L/S107T | GPLM_Gibbs | 0.57 1.49 0.52 0.70 0.44 0.94 | 0.78 |
| T28N/R100A | GPLM_Gibbs | n.d. 1.14 1.80 1.33 1.45 1.27 | 1.40 |
| T28N/G61A/S63R/A101T | GPLM_Gibbs | n.d. 1.34 1.36 n.d. 2.46 2.19 | 1.84 |
| T28C/N30G/S53A/R56L/F105I/D106C | Ctrl | n.d. n.d. n.d. n.d. n.d. n.d. | n.d. |
| T28P/S31E/G103V/S107Q | GPLM_HC | 0.43 1.52 n.d. 0.22 n.d. 0.69 | 0.72 |
| T28N/R56F/G61Q/S63Q/R100E | Ctrl | 0.97 1.83 n.d. n.d. 1.60 1.97 | 1.59 |
| T28Q/S31E/G61S/S63Q/R100Q | GP_Gibbs | 0.96 1.37 0.59 0.45 0.71 0.61 | 0.78 |
| T28E/A101V/S107V | GP_Gen | 1.07 0.52 0.69 0.68 0.58 0.69 | 0.70 |
| T28S/G61A/S63W/A101T | GPLM_Gen | n.d. 0.94 n.d. n.d. n.d. n.d. | 0.94 |
| T28N/S63M/A101N | GP_Gibbs | n.d. n.d. n.d. n.d. 2.52 -0.14 | 1.19 |
| G61S/S63R/R100Q/A101E/S107T | GP_Gibbs | 0.41 0.12 0.85 1.09 0.20 0.24 | 0.48 |
| F27K/T28S/F59A | GP_Gen | 2.90 2.03 1.23 2.91 1.77 2.81 | 2.27 |
| T28E/S53A/R100H | GPLM_Gibbs | 0.17 0.37 1.20 -0.19 0.47 0.41 | 0.40 |
| F59H/G61V/G99Q/R100T/F105I | Ctrl | n.d. n.d. n.d. n.d. n.d. n.d. | n.d. |
| T28D/S53L/T104W/D106N | Rand | n.d. n.d. n.d. n.d. n.d. n.d. | n.d. |
| S31E/A101C/S107D | GP_HC | n.d. n.d. n.d. n.d. n.d. n.d. | n.d. |
| T28G/S31E/G61H/A101Q | GP_Gen | 0.09 0.07 -0.02 0.20 0.52 0.06 | 0.15 |
| F27I/S31E/G61T/A101T | GPLM_HC | n.d. n.d. n.d. n.d. n.d. n.d. | n.d. |
| N30D/G33H/A101N/F105A/D106L | Rand | n.d. n.d. n.d. n.d. n.d. n.d. | n.d. |
| G26A/T28E/S31D/G103L/D106I | Rand | n.d. n.d. n.d. n.d. 1.62 n.d. | 1.62 |
| T28S/S63A/R100K | GPLM_Gen | 0.49 0.60 -0.08 0.41 1.00 0.28 | 0.45 |
| T28N/A101L/S107T | GP_Gen | 1.27 1.11 1.42 1.76 0.98 1.52 | 1.34 |
| T28S/S53A/R100E/S107K | GP_Gen | -0.26 -1.09 -1.32 -1.55 -1.08 -0.70 | -1.00 |
| R56K/S63R/A101M/S107P | Ctrl | n.d. n.d. n.d. n.d. n.d. n.d. | n.d. |

Again, the first 5 entries without any signal:

{"changes": "T28D/Y60V/T104W/D106N", "group": "Rand", "log10 Kd (nM) by replicate": "n.d. n.d. n.d. n.d. n.d. n.d.", "mean log10 Kd (nM)": "n.d."}
{"changes": "S31D/R100P/G103L/D106I", "group": "Rand", "log10 Kd (nM) by replicate": "n.d. n.d. n.d. n.d. n.d. n.d.", "mean log10 Kd (nM)": "n.d."}
{"changes": "I34S/S107T", "group": "Ctrl", "log10 Kd (nM) by replicate": "n.d. n.d. n.d. n.d. n.d. n.d.", "mean log10 Kd (nM)": "n.d."}
{"changes": "R56K/A101N/G103T", "group": "Ctrl", "log10 Kd (nM) by replicate": "n.d. n.d. n.d. n.d. n.d. n.d.", "mean log10 Kd (nM)": "n.d."}
{"changes": "S31D/G61H/D106V", "group": "GPLM_HC", "log10 Kd (nM) by replicate": "n.d. n.d. n.d. n.d. n.d. n.d.", "mean log10 Kd (nM)": "n.d."}